# Source: patent publication US4774345A, “Amine-complexed zinc salts of organic diacids” (Engelhard Corporation, priority 1986, dated 1988)
# Test: Salt spray exposure, Example VI (ASTM B117-73; alkyd and latex primers)
substance,measurement,value
Zinc Succinate Ethylenediamine [Compound 1],"Salt spray durability, in words","superior to ""Zinc Yellow"" (zinc chromate) in salt spray durability"
